From article PMC4309955 (Scientific Reports, 2015)

Legend:
[1] = target: T1, human AT1R (angiotensin II type 1 receptor) (Homo sapiens, UniProt P30556); experiment: inhibition of AngII-induced beta-arrestin activation, cell impedance; format: cell-based
[2] = target: T1, human AT1R (angiotensin II type 1 receptor); experiment: inhibition of AngII-induced G protein activation, cell impedance; format: cell-based

IC50 [1]: 3.1 nM
IC50 [2]: 2.1 nM
SMILES: CCCCc1nc(Cl)c(C(=O)O)n1Cc1ccc(-c2ccccc2-c2nn[nH]n2)cc1 [EXP3174]
